Laboratory results from ChEMBL document CHEMBL5715961 (Cell Chem Biol, 2021).

Legend:
[1] = organism: Homo sapiens; assay: Binding affinity to human recombinant FAK P410G mutant (amino acids 410-689) expressed in Escherichia coli, BL21 (DE3) assessed as dissociation rate constant by SPR assay
[2] = organism: Homo sapiens; assay: Binding affinity to human recombinant FAK P410G mutant (amino acids 410-689) expressed in Escherichia coli, BL21 (DE3) assessed as association rate constant by SPR assay

K [1]	K [2]	SMILES
14 10^-2/s	1.4 10^5/M/s	O=C1Cc2cc(Nc3ncc(C(F)(F)F)c(CCc4ccc(F)cc4)n3)ccc2N1
4.8 10^-2/s	1.8 10^5/M/s	O=C1Cc2cc(Nc3ncc(C(F)(F)F)c(CCc4ccccc4)n3)ccc2N1
